The target in test [1] is T1, IDH2 (Homo sapiens, UniProt P48735).
The target in test [2] is T1, IDH2. Description: biochemical.

The chains behind the UniProt entries cited, without tags or fusion partners. Residues count along the entry.
UniProt P48735, 40-452: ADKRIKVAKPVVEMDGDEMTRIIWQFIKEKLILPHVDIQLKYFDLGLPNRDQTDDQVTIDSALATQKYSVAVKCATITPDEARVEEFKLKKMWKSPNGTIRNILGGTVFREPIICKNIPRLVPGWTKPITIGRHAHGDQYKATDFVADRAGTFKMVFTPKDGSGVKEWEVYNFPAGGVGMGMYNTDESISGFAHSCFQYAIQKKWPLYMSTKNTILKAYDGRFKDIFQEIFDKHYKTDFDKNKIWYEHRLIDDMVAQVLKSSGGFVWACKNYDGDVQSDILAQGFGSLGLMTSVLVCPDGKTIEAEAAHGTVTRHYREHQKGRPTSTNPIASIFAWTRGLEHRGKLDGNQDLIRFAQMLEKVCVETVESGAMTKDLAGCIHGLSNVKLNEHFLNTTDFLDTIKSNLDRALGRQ

Experimental findings from article PMC8566969, “Comparison of viral RNA–host protein interactomes across pathogenic RNA viruses informs rapid antiviral drug discovery for SARS-CoV-2” (Cell Research, 2021) are described below.

As usually defined, the Kd is the concentration at which binding is half-saturated. Lower therefore signals a tighter complex. For the compound `CC(C)(O)CNc1nc(Nc2ccnc(C(F)(F)F)c2)nc(-c2cccc(C(F)(F)F)n2)n1` [Enasidenib, 2-Methyl-1-(4-(6-(trifluoromethyl)pyridin-2-yl)-6-(2-(trifluoromethyl)pyridin-4-ylamino)-1,3,5-triazin-2-ylamino)propan-2-ol], the “CETSA target engagement, IDH2” value at IDH2 [1] is reported as “binding to IDH2”. Further, the dissociation constant (Kd) at IDH2 [2] amounted to 610 nM.
